Values of other authors as cited in patent US11338162B2 (priority 2013, dated 2022).

How the values were obtained:
rat = conditions: in vivo
[1] = system: Fathead Minnow (Pimephales promelas); conditions: in vivo
rabbit = conditions: in vivo, topical or ocular
[2] = system: Daphnia magna (Water flea); conditions: in vivo
[3] = system: Emerald Shiner (Notropis atherinoides); conditions: in vivo

For poly(ethyleneglycol) [PEG (200)], the “LD50 Oral - rat” value (rat) is given as 30,200 mg/kg, the “Toxicity to fish LC50” value [1] is given as >10,000 mg/l and the “LD50 Dermal - rabbit” value (rabbit) is given as >20,000 mg/kg. The “Toxicity to daphnia and other aquatic invertebrates LC50 - Daphnia magna (Water flea)” value [2] was >10,000 mg/l and the “Toxicity to fish LC50” value [3] was over 100 µg/mL.
